Values quoted from earlier work, collected in paper PMC10863309 (Redox Biology, 2024).

Tested on: zebrafish larvae
Settings: 100 μM; cited from earlier work

ibogaine
malformations in zebrafish larvae: yolk sac and/or pericardial edemas
